Assay results from patent US20140296190A1, “MARKETING THE USE OF 25-HYDROXYVITAMIN D3 TO ENHANCE COGNITION” (DSM IP ASSETS B.V., priority 2013, published 2014).

Settings: 127 frail elderly, baseline, P=0.30

Vitamin D
Correlation of vitamin D intake with serum 25-OH D3, r: 0.09 | Correlation of vitamin D intake with serum 25-OH D3, r (listed as vitamin D): low

Read-outs that look alike come from different tables or passages of the source.
